{"source": "patent US8354433B2", "about": "“Anti-inflammatory agents as virostatic compounds” (4SC AG, priority 2009, dated 2013)", "key": {"in vitro [1]": {"assay": "in vitro", "details": "African green monkey"}, "in vitro [2]": {"assay": "in vitro", "details": "African green monkey", "remark": "listed apart in the source"}}}
{"compound": "O=C(Nc1c(F)cc(-c2cccc(OC(F)(F)F)c2)cc1F)c1ccsc1C(=O)O", "note": "[Compound 17, 3-(3,5-difluoro-3′-(trifluoromethoxy)biphenyl-4-ylcarbamoyl)thiophene-2-carboxylic acid]", "values": [{"measurement": "CC50", "setting": "in vitro [1]", "result": 1460, "unit": "nM"}]}
{"compound": "O=C(O)C1=C(C(=O)Nc2ccc(OCc3c(F)cccc3Cl)c(Cl)c2)CCC1", "note": "[Compound 3, 2-[3-Chloro-4-(2-chloro-6-fluoro-benzyloxy)-phenylcarbamoyl]-cyclopent-1-enecarboxylic acid]", "values": [{"measurement": "CC50", "setting": "in vitro [2]", "result": 237, "unit": "nM"}]}
{"compound": "O=C(O)C1=C(C(=O)Nc2c(F)c(F)c(-c3cccc(OC(F)(F)F)c3)c(F)c2F)CCC1", "note": "[Compound 4, 2-(2,3,5,6-Tetrafluoro-3′-trifluoromethoxy-biphenyl-4-ylcarbamoyl)-cyclopent-1-enecarboxylic acid]", "values": [{"measurement": "CC50", "setting": "in vitro [2]", "result": 206, "unit": "nM"}]}
